Source: patent US12018059B2, “Human amylin analog polypeptides and methods of use” (Intarcia Therapeutics, Inc., priority 2018, dated 2024)

By UniProt entry, the sequences of proteins in these tests, tags left out. Residues count along the entry.
UniProt O60896, 24-148: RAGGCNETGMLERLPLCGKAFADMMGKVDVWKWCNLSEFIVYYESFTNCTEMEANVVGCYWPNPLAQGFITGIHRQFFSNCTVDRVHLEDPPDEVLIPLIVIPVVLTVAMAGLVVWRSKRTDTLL

Columns and labels:
[1] = target: T1, human calcitonin receptor (hCTR) (Homo sapiens, UniProt P30988); assay: cAMP accumulation functional assay in HEK293-CNG cells expressing hCTR; type: cell-based
T1 sequence (P30988 25-474): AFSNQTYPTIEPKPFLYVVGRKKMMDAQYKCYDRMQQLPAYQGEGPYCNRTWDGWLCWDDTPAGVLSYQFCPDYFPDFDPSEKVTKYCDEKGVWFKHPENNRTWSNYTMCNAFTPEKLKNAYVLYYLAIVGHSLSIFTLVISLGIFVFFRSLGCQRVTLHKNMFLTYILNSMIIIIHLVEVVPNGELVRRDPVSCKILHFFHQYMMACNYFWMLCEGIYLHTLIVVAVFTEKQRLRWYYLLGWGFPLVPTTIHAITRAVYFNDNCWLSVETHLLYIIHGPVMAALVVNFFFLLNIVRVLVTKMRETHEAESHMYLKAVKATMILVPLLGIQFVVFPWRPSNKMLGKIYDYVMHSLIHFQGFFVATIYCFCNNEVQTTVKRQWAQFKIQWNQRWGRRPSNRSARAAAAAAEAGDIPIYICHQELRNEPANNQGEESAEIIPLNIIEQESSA
Experimental: (§1) In the presence of the non-specific cAMP/cGMP phosphodiesterase inhibitor 3-isobutyl-1-methylxanthine (IBMX), accumulating cAMP can be measured in vitro using common detection methods. Thus, it is possible to estimate an in vitro potency (pEC50) for peptides activating each of these receptors using fit dose-response curves for cAMP accumulation.
(§2) Cells were carried in growth media for no more than 10 passages prior to testing.
Peptides were serially diluted in the same buffer as above for each given assay condition. Two assay control solutions consisting of 50 mcM forskolin (cAMP system maximum) or assay buffer only (cAMP system minimum) were also prepared in the appropriate stimulation buffers. Five microliters of each peptide-concentration, or assay control was added to triplicate wells and incubated for thirty minutes at room temperature. During this incubation step a 4× europium labelled cAMP tracer solution and a 4× Ulight®-anti-cAMP solution (consisting of an anti-cAMP monoclonal antibody labelled with Ulight™ dye) was prepared according to the manufacturer's protocol (PerkinElmer LANCE Ultra cAMP kit). Following this incubation, 5 mcL europium labelled cAMP and 5 mcL Ulight anti-cAMP antibody was added to wells. The plate was covered with an adhesive cover to prevent evaporation and incubated for 60 minutes at room temperature in the dark. Plates were read on an Envision fluorescent plate reader (PerkinElmer).
Test values were first normalized to the forskolin induced cAMP system maximum and system minimum averaged values in Excel using the formula: (test value−system minavg)/(system maxavg−system minavg)*100. Normalized test values represent a baseline corrected percentage of the system maximum cAMP response induced by forskolin. Normalized data was analyzed from triplicate tests and used to estimate the EC50 for each peptide on each receptor. Data was fit in GraphPad Prism software (v7.04) using a 4-parameter logistic curve model: Y=Bottom+(Top−Bottom)/(1+10^((Log EC50−X))). The Hill slope was constrained to 1.0. […]

[2] = in humans; cited from earlier work
[3] = target: human amylin 3 receptor (hAMY3R) (Homo sapiens, UniProt O60896+P30988); assay: cAMP accumulation functional assay in HEK293-CNG cells expressing hAMY3R; type: cell-based; conditions: presence versus absence of HSA (FIG. 2C)
Experimental: as §1, §2
Peptides were serially diluted in the same buffer as above for each given assay condition. Two assay control solutions consisting of 50 mcM forskolin (cAMP system maximum) or assay buffer only (cAMP system minimum) were also prepared in the appropriate stimulation buffers. Five microliters of each peptide-concentration, or assay control was added to triplicate wells and incubated for thirty minutes at room temperature. […] Plates were read on an Envision fluorescent plate reader (PerkinElmer).
Test values were first normalized to the forskolin induced cAMP system maximum and system minimum averaged values in Excel using the formula: (test value−system minavg)/(system maxavg−system minavg)*100. […] Normalized data was analyzed from triplicate tests and used to estimate the EC50 for each peptide on each receptor. […]

EC50 ([1]; hCTR 0% HSA, 0% HSA, read-out: pEC50 hCTR 0% HSA (converted)): 3.98 pM | EC50 ([1]; hCTR 0.1% HSA, 0.1% HSA): 6.31 pM | EC50 ([1]; hCTR 4% HSA, 4% HSA, read-out: pEC50 hCTR 4% HSA (converted)): 7.94 pM | effect of HSA on potency at hAMY3R [3]: unaffected by the presence of HSA
Compound: CC[C@H](C)[C@H](NC(=O)[C@@H]1CCCN1C(=O)CNC(=O)[C@H](Cc1ccccc1)NC(=O)[C@H](CC(N)=O)NC(=O)[C@H](CC(N)=O)NC(=O)[C@H](CO)NC(=O)[C@H](CO)NC(=O)[C@H](Cc1c[nH]cn1)NC(=O)[C@@H](NC(=O)[C@H](CC(C)C)NC(=O)[C@H](Cc1ccccc1)NC(=O)[C@H](CC(N)=O)NC(=O)[C@H](C)NC(=O)[C@H](CC(C)C)NC(=O)[C@H](CCCNC(=N)N)NC(=O)[C@H](CCC(N)=O)NC(=O)[C@@H](NC(=O)[C@H](C)NC(=O)[C@@H]1CSSC[C@H](NC(=O)[C@@H](N)CCCCN)C(=O)N[C@@H](CC(N)=O)C(=O)N[C@@H]([C@@H](C)O)C(=O)N[C@@H](C)C(=O)N[C@@H]([C@@H](C)O)C(=O)N1)[C@@H](C)O)C(C)C)C(=O)N[C@@H](CC(C)C)C(=O)N1CCC[C@H]1C(=O)N1CCC[C@H]1C(=O)N[C@H](C(=O)N[C@@H](CC(N)=O)C(=O)N[C@H](C(=O)NCC(=O)N[C@@H](CO)C(=O)N[C@@H](CC(N)=O)C(=O)N[C@H](C(=O)N[C@@H](Cc1ccc(O)cc1)C(N)=O)[C@@H](C)O)C(C)C)[C@@H](C)O [Pramlintide, pramlintide, reference compound]
half-life [2]: approximately 48 minutes

Like-named read-outs stand apart in the source and are kept apart here.
